From US6329000A, “Extract of pine needle and the use thereof” (priority 1999, dated 2001)

System: coronary heart disease
Assay: Clinical test in coronary heart disease: ECG, angina pectoris, arrhythmia
Type: in vivo, human

O=[N+]([O-])O[C@H]1CO[C@H]2[C@@H]1OC[C@H]2O[N+](=O)[O-]
ECG remarkable effectiveness case number (abnormal ECG 38 (extract) / 21 (control)): 2 case number | ECG improvement case % (abnormal ECG 38 / 21): 14.3% | ECG improvement case number (abnormal ECG 38 / 21): 3 case number | ECG remarkable effectiveness case % (abnormal ECG 38 / 21): 9.5% | ECG total effective case number (abnormal ECG 38 / 21): 5 case number | ECG total effective rate % (abnormal ECG 38 / 21): 23.8% | total incidences of angina pectoris after treatment (before: 395 (extract), 215 (control) times a week): 108 times a week | total effective rate on angina pectoris (extract 15 ml (1.6 g) t.i.d. / control isosorbide dinitrate t.i.d.): 86.6%
